For two molecules, inhibition results are on record in PubChem BioAssay AID602399 (Sanford-Burnham Center for Chemical Genomics, 2012).

Only a part is listed here, and it is no random draw. Calls of active or inactive are those of the source. Rule as the data show it: active = inhibition above about 26%; inactive = the rest.

The assay concerns Nicotinate-nucleotide adenylyltransferase NadD (Staphylococcus aureus N315). Description: inhibitors of S. aureus NadD, primary screen, biochemical, colorimetric, uHTS (AID 602399). The note with it: purified NadD enzyme, colorimetric absorbance read-out; at 20 µM; active compounds read high.
`CCC(=O)N(c1ccccc1)C1(COC)CCN(CCn2nnn(CC)c2=O)CC1`: the inhibition – broadly, the change of the read-out against control, counted positive when it falls – was inactive: 1.62%.

For `CCC(=O)N(c1ccccc1)C1(COC)CCN(CCc2cccs2)CC1`, the inhibition is inactive: -6.85%.
